Like-named read-outs stand apart in the source and are kept apart here.
Target: recombinant human CHIT1 (Homo sapiens (Human), UniProt Q13231)
Assay: Human CHIT1 activity assay (fluorescent 4MU substrate)
Assay type: biochemical

Amino acid sequences for entries named in this document (tags omitted). Residues count along the entry.
UniProt Q13231, 22-466: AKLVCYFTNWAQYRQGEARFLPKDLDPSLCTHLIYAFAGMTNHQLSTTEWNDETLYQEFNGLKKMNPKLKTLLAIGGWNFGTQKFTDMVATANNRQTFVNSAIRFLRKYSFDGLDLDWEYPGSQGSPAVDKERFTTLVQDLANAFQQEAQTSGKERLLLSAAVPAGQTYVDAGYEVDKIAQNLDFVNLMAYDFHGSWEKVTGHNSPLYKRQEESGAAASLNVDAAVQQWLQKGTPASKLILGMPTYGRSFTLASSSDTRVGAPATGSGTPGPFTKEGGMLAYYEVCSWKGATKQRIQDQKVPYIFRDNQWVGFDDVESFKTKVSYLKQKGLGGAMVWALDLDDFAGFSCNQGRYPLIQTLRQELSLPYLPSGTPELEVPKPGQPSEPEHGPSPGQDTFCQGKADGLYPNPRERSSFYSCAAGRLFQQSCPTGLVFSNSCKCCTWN

CO[C@@H]1CCN(C2CCN(c3nnc(N)[nH]3)CC2)[C@@H](Cc2ccc(Cl)cc2)C1 showed an IC50 of 1 to 10 µM.
Work on CO[C@H]1CCN(C2CCN(c3nnc(N)[nH]3)CC2)[C@@H](Cc2ccc(Cl)cc2)C1 yielded an IC50 of 0.1 to 1 µM.
Nc1nnc(N2CCC(N3CCC[C@@H]3Cc3ccc(Cl)cc3)CC2)[nH]1 [Example 24, (R)-5-(4-(2-(4-chlorobenzyl)pyrrolidin-1-yl)piperidin-1-yl)-4H-1,2,4-triazol-3-amine] showed an IC50 (read-out: Activity on hCHIT1, IC50, citrate buffer pH 5.2, 37° C., 60 minutes, substrate 4-methylumbelliferyl β-D-N,N′,N″-triacetylchitotriose) of under 0.1 µM.

Source: US9944624B2 (dated 2018)
